Antibody variant affinities, Ab-95 light chain, assay 2

The measurements come from Engelhart et al. 2022 (doi:10.1038/s41597-022-01779-4) through the FLAb antibody collection.

Antigen: PDVDLGDISGINAS, a 14-residue peptide of the SARS-CoV-2 spike HR2 region.

Ab-95 is the parent antibody, in scFv form: VH, then three GGGGS repeats, then VL. The heavy chain is unchanged in all variants.
VH: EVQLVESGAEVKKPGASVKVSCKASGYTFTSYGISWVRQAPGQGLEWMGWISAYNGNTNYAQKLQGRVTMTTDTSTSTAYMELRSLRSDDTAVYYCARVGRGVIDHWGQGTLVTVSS
VL: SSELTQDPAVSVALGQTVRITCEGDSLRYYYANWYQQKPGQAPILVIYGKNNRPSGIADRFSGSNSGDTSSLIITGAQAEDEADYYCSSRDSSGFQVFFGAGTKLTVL

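Phage display of a naive human antibody library on the peptide gave the parent. AAYL52 was designed without a model: most single CDR substitutions and a random sample of double and triple ones. The scFvs were displayed on barcoded MATa yeast, the peptide on MATalpha yeast. The frequency of each diploid, read from paired DNA barcodes, reflects how well the two displayed proteins bind. Each replicate has its own calibration line, from reference interactions of the BCL2 family. Each pool was mated in three replicate cultures.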

Each variant is given by its three light chain CDRs, as the data file delimits them; those of the parent are EGDSLRYYYAN, GKNNRPS, SSRDSSGFQVF.
Affinities are written as log10 Kd with Kd in nM; a lower number is a better binder.
"ND" means that the variant was in the library but no mating with the target was seen in that replicate; the authors take this as a sign of poor binding, and no number exists.

CDR-L1 | CDR-L2 | CDR-L3 | log10 Kd (nM) by replicate | control signals
YGDSLRYYYAN | GKNNRPS | SSYDSSGFQVF | 4.84 ND 4.43 | 4 of 9 (4.14)
EGDSLRYMYAN | GKNNRPS | SSRLSGGFQVF | 5.07 ND 4.46 | 3 of 9 (5.00)
CGDSNRYYYAN | GKNNRPS | SSRDSSVFQVF | ND ND ND | 0 of 9
EGDSLRYYYPN | GKNNRPS | KSRDISGFQVF | 4.55 ND 4.16 | 2 of 9 (3.26)
EGDSLRYYYAG | GKNNRVS | SSRDMSGFQVF | 3.63 ND ND | 2 of 9 (4.25)
EGDSLRYYYMN | GKNNRPS | SSRDSIGFDVF | 3.34 ND ND | 3 of 9 (4.02)
EGDSLRYYYAN | GKNKRPS | SSCDSSGFCVF | 3.76 3.09 3.71 | 5 of 9 (3.88)
EGDSLRYYYRN | GKNNWYS | SSRDSSGFQVF | 3.79 ND 4.33 | 3 of 9 (4.47)
EGDSLRYYYAN | GKNNAPS | SSADSSYFQVF | ND 3.71 4.19 | 2 of 9 (4.01)
EQDSLRYYYAN | GKNNRPR | SSRDSSGFNVF | 4.03 ND ND | 4 of 9 (3.58)
EGDSSRYYYAN | GKFNRPS | SSRDSSGFQQF | ND 5.02 ND | 1 of 9 (3.27)
EGDSLVYCYAN | GKNNRPR | SSRDSSGFQVF | ND ND ND | 4 of 9 (4.35)
CGDSLRYYYAN | GKKNRPS | SSRDSSGFQVF | ND 4.24 ND | 0 of 9
EGDSLEYYYAN | GKNNRPS | ISMDSSGFQVF | ND ND ND | 2 of 9 (4.41)
EGASLRYYYAN | GKNNRPS | SAQDSSGFQVF | 1.89 2.37 1.39 | 0 of 9
EGDSLRYKYAN | GKNNRPS | SSADSSGFFVF | ND ND ND | 1 of 9 (3.43)
EGLSLRYYYAY | GKNNRPS | SSRDSSGFQGF | 3.87 4.09 3.62 | 5 of 9 (3.75)
EGDSLAYYYAD | GKNNRPS | ESRDSSGFQVF | ND ND ND | 3 of 9 (3.73)
EGDSLHYYDAN | GKNNRPS | SSRDSMGFQVF | 1.69 1.60 1.09 | 4 of 9 (4.51)
EGDSLRFYYAN | GKNNRPS | SSRDSSYTQVF | 2.75 3.06 2.36 | 3 of 9 (4.11)
EGDSLPYYYAN | GKNNRPS | SSRDHSGFPVF | 3.79 3.18 2.93 | 4 of 9 (3.43)
EGDSLRYYYAN | GKENRPS | SSMDSSGFKVF | 2.47 3.11 3.39 | 1 of 9 (2.92)
EMESLRYYYAN | GNNNRPS | SSRDSSGFQVF | 3.13 ND ND | 1 of 9 (3.09)
ETDSLRYYYAN | GKNNRPS | YSRDSSGFMVF | 4.03 ND 4.16 | 2 of 9 (3.74)
EGRSLRYYYAN | GKNNRPS | LSRDSSCFQVF | 2.94 3.96 3.91 | 1 of 9 (3.13)
EGDSLRCYYAN | FKNNRPS | SSRDKSGFQVF | 3.79 ND 4.28 | 4 of 9 (3.95)
EGWSRRYYYAN | GKNNRPS | SSRFSSGFQVF | ND 5.68 ND | 5 of 9 (3.77)
EGDSLKYYYAN | GKNNRPS | SSRDCSGFQPF | 2.97 2.58 3.17 | 4 of 9 (3.29)
EGDSLRYYYAV | GKNNRPS | SQRDSSGFQNF | 3.82 4.38 ND | 4 of 9 (4.25)
EGDVLREYHAN | GKNNRPS | SSRDSSGFQVF | 3.24 3.91 3.22 | 3 of 9 (4.53)
CGDSLRFYYAN | GKNNRPS | SSRDASGFQVF | 2.63 2.43 2.09 | 1 of 9 (2.90)
EGDSLRYYYAN | MKNYRPS | SSRDSSGFQLF | 4.01 ND ND | 2 of 9 (3.94)
EGDSLRYYYAN | GKNDRPS | QSRDSSGFQQF | ND ND ND | 2 of 9 (4.03)
EGDSLRYAHAN | GKNNRPS | SSRDSSGFRVF | 1.54 1.32 0.86 | 4 of 9 (4.29)
EGDSLRYYYAN | YKNNRES | SSRDSSGFFVF | ND ND 3.25 | 1 of 9 (3.67)
EGDSLRYYRAN | GKNNRPS | SSRDHSGFQRF | 2.71 2.21 2.04 | 4 of 9 (4.06)
EGDSLRYYNAN | GKNNRPS | SSRDSSGFQRD | 3.44 3.22 ND | 4 of 9 (3.77)
EGDPLRYYYHN | GKNNRPS | MSRDSSGFQVF | 1.30 1.13 0.80 | 2 of 9 (3.91)
EGDSLRYYYAN | GKNNRPS | SSRDSSCMQVF | 5.50 4.82 3.25 | 6 of 9 (3.82)
EGDSLRYYYAN | CKNNRPS | DSDDSSGFQVF | 4.14 ND 3.88 | 4 of 9 (3.17)
EGNSLRYYYAN | HKNNRPS | SSRDSSGFEVF | 3.25 3.10 3.72 | 4 of 9 (4.13)
ERDSLRYYCAN | GKNNRPS | SSADSSGFQVF | 3.96 2.92 ND | 2 of 9 (3.66)
EGDSLRYCYAN | GKNNCPS | SSRDSCGFQVF | 5.33 ND ND | 1 of 9 (3.97)
EGDSLRYYYQN | GKNNRPS | SSRDMSGFHVF | ND ND ND | 0 of 9
EGDSLRYYYAN | GKNNRPS | STRDESGFRVF | 3.11 2.58 2.66 | 1 of 9 (3.89)
EGDSLRYYYAN | GKNNYYS | SGRDSSGFQVF | 4.50 ND ND | 0 of 9

Repeated from above, the 5 best binders with a signal in all replicates:

| CDR-L1 | CDR-L2 | CDR-L3 | log10 Kd (nM) by replicate | control signals |
|---|---|---|---|---|
| EGDPLRYYYHN | GKNNRPS | MSRDSSGFQVF | 1.30 1.13 0.80 | 2 of 9 (3.91) |
| EGDSLRYAHAN | GKNNRPS | SSRDSSGFRVF | 1.54 1.32 0.86 | 4 of 9 (4.29) |
| EGDSLHYYDAN | GKNNRPS | SSRDSMGFQVF | 1.69 1.60 1.09 | 4 of 9 (4.51) |
| EGASLRYYYAN | GKNNRPS | SAQDSSGFQVF | 1.89 2.37 1.39 | 0 of 9 |
| EGDSLRYYRAN | GKNNRPS | SSRDHSGFQRF | 2.71 2.21 2.04 | 4 of 9 (4.06) |

Three control strains display no target. For library AAYL52, 28% of the pairings with them gave a signal, with a median of 3.91 and one signal in twenty below 2.90, so weak values seen in few replicates may be background. Also given: how often the same scFv was detected with the empty control strains, with their mean in brackets.
For reference, the parent read 2.31 as the reference entry and 2.25 as a member of this library.